Source: PMC6201295 (Leukemia & lymphoma, 2018)

Assay: Plasma pharmacokinetics of dasatinib in study patients
Conditions: human, oral, 100 mg

## Cc1nc(Nc2ncc(C(=O)Nc3c(C)cccc3Cl)s2)cc(N2CCN(CCO)CC2)n1 [Dasatinib]
  half-life: 2.5 h
